Measured values published in PubChem BioAssay (EPA / NIEHS).
Only a part is listed here, and it is no random draw. Records with an inconclusive call do not appear. Active and inactive are the calls of the source. How the source made its calls, unless noted: active means hit-call score of the fitted dose curve at least 0.9, where 1 is the maximum; inactive means score below 0.9.

Amino acid sequences for entries named in this document (tags omitted).
UniProt P43354, whole entry: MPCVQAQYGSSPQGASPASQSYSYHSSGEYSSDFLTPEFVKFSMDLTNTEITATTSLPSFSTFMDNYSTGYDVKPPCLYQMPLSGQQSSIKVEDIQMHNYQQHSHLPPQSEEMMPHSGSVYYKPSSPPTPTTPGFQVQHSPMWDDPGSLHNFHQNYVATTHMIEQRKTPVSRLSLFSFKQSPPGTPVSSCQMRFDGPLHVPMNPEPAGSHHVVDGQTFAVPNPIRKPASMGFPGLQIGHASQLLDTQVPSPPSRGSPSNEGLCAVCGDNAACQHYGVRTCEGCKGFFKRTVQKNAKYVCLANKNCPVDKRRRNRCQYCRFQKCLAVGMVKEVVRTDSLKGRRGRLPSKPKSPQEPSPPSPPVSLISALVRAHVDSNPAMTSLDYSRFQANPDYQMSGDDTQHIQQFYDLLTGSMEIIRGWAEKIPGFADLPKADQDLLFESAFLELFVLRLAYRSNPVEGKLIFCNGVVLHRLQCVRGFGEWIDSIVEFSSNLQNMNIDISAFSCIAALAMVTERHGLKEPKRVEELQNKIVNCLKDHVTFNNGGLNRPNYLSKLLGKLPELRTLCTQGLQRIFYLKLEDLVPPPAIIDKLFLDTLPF
UniProt P10242, whole entry: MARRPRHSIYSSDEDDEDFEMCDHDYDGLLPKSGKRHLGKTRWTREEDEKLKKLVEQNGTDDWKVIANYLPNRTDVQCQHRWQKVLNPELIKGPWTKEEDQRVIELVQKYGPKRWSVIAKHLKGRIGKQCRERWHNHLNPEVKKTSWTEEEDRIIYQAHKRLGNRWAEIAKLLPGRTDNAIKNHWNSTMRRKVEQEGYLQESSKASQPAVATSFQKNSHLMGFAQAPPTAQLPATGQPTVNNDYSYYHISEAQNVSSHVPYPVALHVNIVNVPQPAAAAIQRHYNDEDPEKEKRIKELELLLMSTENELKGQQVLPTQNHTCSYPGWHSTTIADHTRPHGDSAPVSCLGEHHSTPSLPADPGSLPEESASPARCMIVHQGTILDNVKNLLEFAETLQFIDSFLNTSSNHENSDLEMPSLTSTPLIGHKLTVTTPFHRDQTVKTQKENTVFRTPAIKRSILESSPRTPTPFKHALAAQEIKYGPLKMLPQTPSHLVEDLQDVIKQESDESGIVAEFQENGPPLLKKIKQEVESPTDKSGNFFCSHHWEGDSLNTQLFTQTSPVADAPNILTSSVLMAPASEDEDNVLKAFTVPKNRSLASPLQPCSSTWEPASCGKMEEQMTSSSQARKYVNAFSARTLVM
UniProt Q16656, whole entry: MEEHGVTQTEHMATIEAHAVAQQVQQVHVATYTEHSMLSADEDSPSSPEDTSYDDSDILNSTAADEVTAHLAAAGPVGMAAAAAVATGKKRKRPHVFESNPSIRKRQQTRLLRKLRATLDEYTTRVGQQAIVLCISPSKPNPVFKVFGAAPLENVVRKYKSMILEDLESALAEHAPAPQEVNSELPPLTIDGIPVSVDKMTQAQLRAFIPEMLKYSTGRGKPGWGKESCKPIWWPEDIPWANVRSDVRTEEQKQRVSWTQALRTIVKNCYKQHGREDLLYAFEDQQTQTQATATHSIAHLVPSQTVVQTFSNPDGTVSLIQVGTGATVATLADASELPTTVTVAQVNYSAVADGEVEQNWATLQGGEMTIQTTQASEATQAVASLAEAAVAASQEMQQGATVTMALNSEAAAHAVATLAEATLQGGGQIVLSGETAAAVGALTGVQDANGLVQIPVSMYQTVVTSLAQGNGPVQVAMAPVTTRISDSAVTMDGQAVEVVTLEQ
UniProt P01106, whole entry: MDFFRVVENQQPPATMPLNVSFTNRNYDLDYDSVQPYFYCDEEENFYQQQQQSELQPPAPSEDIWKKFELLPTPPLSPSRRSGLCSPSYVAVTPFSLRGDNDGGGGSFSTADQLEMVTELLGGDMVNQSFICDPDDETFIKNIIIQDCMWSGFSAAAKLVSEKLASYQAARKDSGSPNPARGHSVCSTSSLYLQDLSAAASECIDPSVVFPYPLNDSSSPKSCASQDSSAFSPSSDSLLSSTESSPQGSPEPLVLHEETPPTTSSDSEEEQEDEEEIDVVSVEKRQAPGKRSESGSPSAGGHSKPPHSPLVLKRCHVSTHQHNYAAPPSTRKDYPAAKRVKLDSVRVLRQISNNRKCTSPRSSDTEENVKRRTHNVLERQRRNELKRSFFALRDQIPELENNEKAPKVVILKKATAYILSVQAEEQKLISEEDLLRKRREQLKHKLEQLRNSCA
UniProt Q07869, whole entry: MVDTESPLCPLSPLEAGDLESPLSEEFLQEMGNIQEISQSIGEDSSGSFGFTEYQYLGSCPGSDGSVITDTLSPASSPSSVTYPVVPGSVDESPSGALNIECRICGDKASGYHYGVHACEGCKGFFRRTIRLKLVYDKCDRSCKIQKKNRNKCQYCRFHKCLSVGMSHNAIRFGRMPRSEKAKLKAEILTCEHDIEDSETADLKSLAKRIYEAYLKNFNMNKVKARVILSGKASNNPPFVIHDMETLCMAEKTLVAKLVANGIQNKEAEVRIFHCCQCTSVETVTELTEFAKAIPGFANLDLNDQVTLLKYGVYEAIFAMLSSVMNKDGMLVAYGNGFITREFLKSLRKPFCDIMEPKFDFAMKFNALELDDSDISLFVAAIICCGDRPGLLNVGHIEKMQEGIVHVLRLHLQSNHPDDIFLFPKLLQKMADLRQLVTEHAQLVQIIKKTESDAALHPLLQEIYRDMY
UniProt P37231, whole entry: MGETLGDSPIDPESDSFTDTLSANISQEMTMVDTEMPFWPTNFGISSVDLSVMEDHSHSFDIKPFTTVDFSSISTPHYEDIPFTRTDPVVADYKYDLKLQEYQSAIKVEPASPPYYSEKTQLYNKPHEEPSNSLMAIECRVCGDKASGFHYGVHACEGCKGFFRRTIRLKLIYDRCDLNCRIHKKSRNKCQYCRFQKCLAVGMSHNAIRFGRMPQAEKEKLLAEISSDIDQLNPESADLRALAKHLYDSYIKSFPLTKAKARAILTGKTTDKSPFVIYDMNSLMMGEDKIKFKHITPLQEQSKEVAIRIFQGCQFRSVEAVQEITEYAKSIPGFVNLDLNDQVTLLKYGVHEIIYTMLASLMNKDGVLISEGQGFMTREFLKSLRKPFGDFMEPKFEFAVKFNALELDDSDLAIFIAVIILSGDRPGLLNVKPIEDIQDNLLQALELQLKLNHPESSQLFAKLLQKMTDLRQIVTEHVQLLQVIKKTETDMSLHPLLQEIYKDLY
UniProt O75469, whole entry: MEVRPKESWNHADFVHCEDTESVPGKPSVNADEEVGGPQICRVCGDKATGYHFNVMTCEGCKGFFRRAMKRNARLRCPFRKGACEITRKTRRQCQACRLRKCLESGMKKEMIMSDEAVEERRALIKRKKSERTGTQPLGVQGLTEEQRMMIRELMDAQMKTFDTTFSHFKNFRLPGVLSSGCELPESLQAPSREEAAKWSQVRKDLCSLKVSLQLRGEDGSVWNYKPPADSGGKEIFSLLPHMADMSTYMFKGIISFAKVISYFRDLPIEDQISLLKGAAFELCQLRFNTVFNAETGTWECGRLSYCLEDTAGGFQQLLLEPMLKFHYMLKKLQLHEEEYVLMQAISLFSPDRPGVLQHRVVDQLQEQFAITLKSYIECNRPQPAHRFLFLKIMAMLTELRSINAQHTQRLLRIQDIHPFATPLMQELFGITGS
UniProt Q03181, whole entry: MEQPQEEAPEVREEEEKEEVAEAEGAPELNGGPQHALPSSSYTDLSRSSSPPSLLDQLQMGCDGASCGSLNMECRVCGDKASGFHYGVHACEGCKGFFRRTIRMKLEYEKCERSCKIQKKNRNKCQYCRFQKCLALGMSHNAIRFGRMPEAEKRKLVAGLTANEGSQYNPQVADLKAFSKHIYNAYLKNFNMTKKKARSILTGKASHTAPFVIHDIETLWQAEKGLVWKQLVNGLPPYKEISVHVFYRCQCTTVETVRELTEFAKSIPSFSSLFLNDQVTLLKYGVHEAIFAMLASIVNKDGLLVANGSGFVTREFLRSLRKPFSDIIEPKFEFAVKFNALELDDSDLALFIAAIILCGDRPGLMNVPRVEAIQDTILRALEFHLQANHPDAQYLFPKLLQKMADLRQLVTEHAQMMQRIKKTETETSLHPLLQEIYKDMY
UniProt P10826, whole entry: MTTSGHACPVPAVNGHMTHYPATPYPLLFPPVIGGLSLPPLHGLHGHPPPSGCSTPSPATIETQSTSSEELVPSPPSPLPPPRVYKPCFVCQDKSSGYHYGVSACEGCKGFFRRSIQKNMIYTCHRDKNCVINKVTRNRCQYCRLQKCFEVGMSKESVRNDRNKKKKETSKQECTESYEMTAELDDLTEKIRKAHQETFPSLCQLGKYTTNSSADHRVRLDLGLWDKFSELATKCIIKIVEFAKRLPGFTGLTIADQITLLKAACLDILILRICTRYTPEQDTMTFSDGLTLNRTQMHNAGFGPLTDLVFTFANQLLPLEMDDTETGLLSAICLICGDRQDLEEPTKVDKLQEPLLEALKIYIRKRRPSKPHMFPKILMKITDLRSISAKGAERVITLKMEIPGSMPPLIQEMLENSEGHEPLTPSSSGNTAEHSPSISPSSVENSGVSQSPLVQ
UniProt P13631, whole entry: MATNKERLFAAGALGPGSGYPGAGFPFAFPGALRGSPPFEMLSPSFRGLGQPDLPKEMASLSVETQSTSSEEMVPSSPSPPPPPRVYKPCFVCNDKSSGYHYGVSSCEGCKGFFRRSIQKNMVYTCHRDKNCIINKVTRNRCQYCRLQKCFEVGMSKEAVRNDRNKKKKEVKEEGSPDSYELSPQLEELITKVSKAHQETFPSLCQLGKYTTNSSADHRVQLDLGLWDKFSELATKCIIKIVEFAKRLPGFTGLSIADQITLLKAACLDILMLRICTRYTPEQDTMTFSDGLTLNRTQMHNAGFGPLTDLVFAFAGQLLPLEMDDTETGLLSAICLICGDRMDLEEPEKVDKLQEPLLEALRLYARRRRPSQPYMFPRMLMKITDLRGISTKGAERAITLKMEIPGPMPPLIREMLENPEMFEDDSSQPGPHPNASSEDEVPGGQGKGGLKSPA
UniProt P10276, whole entry: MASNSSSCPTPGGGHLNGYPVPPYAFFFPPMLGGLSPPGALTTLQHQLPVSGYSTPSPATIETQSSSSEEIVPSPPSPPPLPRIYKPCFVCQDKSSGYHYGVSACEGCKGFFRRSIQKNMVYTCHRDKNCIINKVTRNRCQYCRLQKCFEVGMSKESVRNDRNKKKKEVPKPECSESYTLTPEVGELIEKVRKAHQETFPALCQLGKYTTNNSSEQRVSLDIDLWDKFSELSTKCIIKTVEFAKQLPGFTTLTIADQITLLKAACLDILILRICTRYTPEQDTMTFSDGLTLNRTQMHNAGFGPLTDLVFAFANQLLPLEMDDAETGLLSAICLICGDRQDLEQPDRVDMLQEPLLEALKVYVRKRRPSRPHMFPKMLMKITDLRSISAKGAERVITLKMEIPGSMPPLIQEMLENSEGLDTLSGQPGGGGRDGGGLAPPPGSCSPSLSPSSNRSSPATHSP

Key:
[1] = target: Nuclear receptor subfamily 4 group A member 2 (Homo sapiens) (UniProt P43354); assay: ATG_NURR1_TRANS: Attagene TRANS-FACTORIAL HepG2 Assay for human Nuclear Receptor Related Protein 1 (NURR1) (AID 2282985; active means hit-call score of the fitted dose curve at least 0.9, where 1 is the maximum); conditions: HepG2 Attagene TRANS reporter, mRNA readout
Outline: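 HepG2 / transient MRTU transfection / 24 h compound exposure / RT-PCR + CE fluorescence of reporter mRNA / gain-of-signal vs DMSO.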

[2] = target: Transcriptional activator Myb (Homo sapiens) (UniProt P10242); assay: ATG_Myb_CIS: Attagene CIS-FACTORIAL HepG2 Assay for human Myeloblastosis (Myb) Proto-Oncogene Transcription Factor (AID 2282986); conditions: HepG2 Attagene CIS-FACTORIAL Myb reporter transcription; actives raise or lower the signal
Outline: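 After 24 h of compound dosing, total RNA from transfected HepG2 cells is reverse-transcribed and the reporter sequences amplified, labeled and separated by capillary electrophoresis. Values come from bidirectional fitting against DMSO.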

[3] = target: Nuclear respiratory factor 1 (Homo sapiens) (UniProt Q16656); assay: ATG_NRF1_CIS: Attagene CIS-FACTORIAL HepG2 Assay for human Nuclear Respiratory Factor 1 (NRF1) Orphan Gene (AID 2282987); conditions: HepG2 NRF1 cis-element reporter, Attagene multiplex; actives raise or lower the signal
Outline: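 Measured: fluorescent reporter-specific RT-PCR products from transfected HepG2 cells, separated by capillary electrophoresis. Exposure lasted 24 h. Analysis used bidirectional curve fitting with DMSO as negative control.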

[4] = target: Myc proto-oncogene protein (Homo sapiens) (UniProt P01106); assay: ATG_Myc_CIS: Attagene CIS-FACTORIAL HepG2 Assay for human Myelocytomatosis (Myc) Proto-Oncogene Transcription Factor (AID 2282990); conditions: HepG2, Attagene cis-reporter transcription factor activity; actives raise or lower the signal
Outline: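 Transiently transfected HepG2 cells bearing cis-promoter reporter units for endogenous transcription factors; 24 h exposure. Reporter mRNA measured by RT-PCR, 6-FAM primer extension, HpaI cut and capillary electrophoresis; bidirectional fit relative to DMSO.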

[5] = ATG_NF_kB_CIS: Attagene CIS-FACTORIAL HepG2 Assay for human Nuclear Factor Kappa B (NF-kB) (AID 2282991); conditions: HepG2 Attagene cis-factorial NF-kB reporter mRNA; actives raise or lower the signal
Outline: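 Fluorescence of labelled RT-PCR products separated by capillary electrophoresis gives reporter mRNA levels from transfected HepG2 cells exposed 24 h; values are fitted in both directions relative to DMSO.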

[6] = ATG_NRF2_ARE_CIS: Attagene CIS-FACTORIAL HepG2 Assay for human Nuclear Factor Erythroid 2 Related Factor 2 (NFR2) response to Antioxidant Response Elements (ARE) (AID 2282992); conditions: HepG2 Attagene ARE/NRF2 reporter, transcription factor activity; actives raise or lower the signal
Outline: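 Cis-factorial assay: transfected HepG2 reporter library, 24 h dosing, mRNA readout via RT-PCR/CE; DMSO-referenced bidirectional analysis.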

[7] = ATG_Oct_MLP_CIS: Attagene CIS-FACTORIAL HepG2 Assay for human Octamer-Binding Transcription Factor (Oct) (AID 2282993); conditions: HepG2 Attagene cis-factorial Oct reporter, mRNA; actives raise or lower the signal
Outline: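 Transient MRTU transfection of HepG2 → 24 h compound treatment → RNA isolation, reverse transcription, PCR → 6-FAM primer extension, HpaI digest → capillary electrophoresis. Activity fitted both directions against DMSO.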

[8] = BSK_3C_TissueFactor: BioMAP Diversity Plus: 3C Assay for Tissue Factor Biomarker Activity (AID 2282997); conditions: BioMAP 3C HUVEC, tissue factor biomarker readout; actives raise or lower the signal
Outline: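 Endothelial monolayers (human umbilical vein, primary) are dosed, incubated 24 h, and assayed for Tissue Factor by ELISA; DMSO serves as negative control for bidirectional fitting.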

[9] = BSK_3C_uPAR: BioMAP Diversity Plus: 3C Assay for Urokinase-type plasminogen activator receptor (uPAR) Biomarker Activity (AID 2282998); conditions: BioMAP 3C HUVEC, uPAR biomarker ELISA; actives raise or lower the signal
Outline: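 ELISA readout of uPAR on human vascular endothelium (umbilical vein primary cells), taken 24 h after chemical dosing. Increases and decreases are both fitted relative to DMSO vehicle.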

[10] = BSK_3C_VCAM1: BioMAP Diversity Plus: 3C Assay for Vascular cell adhesion molecule 1 (VCAM1) Biomarker Activity (AID 2282999); conditions: BioMAP 3C HUVEC, VCAM1 ELISA, cytokine-stimulated; actives raise or lower the signal
Outline: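 Human umbilical vein endothelial cells (3C system), biomarker read by ELISA 24 h after dosing; bidirectional fit against DMSO baseline. Cytotoxicity tracked by SRB total-protein staining in parallel cultures at biomarker time.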

[11] = BSK_4H_Eotaxin3: BioMAP Diversity Plus: 4H Assay for Eotaxin 3 Biomarker Activity (AID 2283000); conditions: actives raise or lower the signal; primary human endothelial cells (HUVEC)
Outline: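 ELISA quantitation of CCL26 (Eotaxin-3) protein from chemically dosed human vascular endothelial cells at 24 h; increases and decreases both scored relative to DMSO-treated baseline.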

[12] = target: human Peroxisome Proliferator-activated Receptor alpha (PPARa), PPARA (gene 5465) (UniProt Q07869); assay: ATG_PPARa_TRANS: Attagene TRANS-FACTORIAL HepG2 Assay for human Peroxisome Proliferator-activated Receptor alpha (PPARa) (AID 2283001; active means hit-call score of the fitted dose curve at least 0.9, where 1 is the maximum)
Outline: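 Measures transcriptional activity of an exogenous chimeric PPARa-Gal4 protein in transiently transfected HepG2 cells after 24 h dosing. Reporter mRNA quantified via RT-PCR and capillary electrophoresis; DMSO served as negative control.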

[13] = read-out: Intercellular Adhesion Molecule 1 (ICAM1), ICAM1 (gene 3383); assay: BSK_3C_ICAM1: BioMAP Diversity Plus: 3C Assay for Intercellular Adhesion Molecule 1 (ICAM1) Biomarker Activity (AID 2283003); conditions: actives raise or lower the signal; primary human endothelial cells (HUVEC)
Outline: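 Primary human umbilical vein endothelial cells in the BioMAP 3C system were exposed to chemicals for 24 h, then ICAM-1 was quantified by ELISA. Activity was fitted bidirectionally against the DMSO negative control baseline.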

[14] = BSK_3C_Proliferation: Cell Proliferation Assessment in the BioMAP Diversity Plus: 3C Assay (AID 2283006); conditions: primary human endothelial cells (HUVEC)
Outline: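 Human umbilical vein endothelial cells were grown sub-confluent and exposed to chemical for 48 h, then fixed with 10% TCA and stained with 0.1% sulforhodamine B; absorbance at 560 nm gave relative cell number, fitted bidirectionally against DMSO baseline.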

[15] = target: Peroxisome proliferator-activated receptor gamma (Homo sapiens) (UniProt P37231); assay: ATG_PPARg_TRANS: Attagene TRANS-FACTORIAL HepG2 Assay for human Peroxisome Proliferator-activated Receptor-gamma (PPARg) (AID 2283007; active means hit-call score of the fitted dose curve at least 0.9, where 1 is the maximum)
Outline: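 Twenty-four hours after chemical dosing of transiently transfected HepG2 cells, isolated RNA was converted to cDNA, reporter sequences amplified and 6-FAM-labelled, then HpaI-digested and analysed by capillary electrophoresis. Signal increase against DMSO was fitted.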

[16] = target: Nuclear receptor subfamily 1 group I member 2 (Homo sapiens) (UniProt O75469); assay: ATG_PXR_TRANS: Attagene TRANS-FACTORIAL HepG2 Assay for human Pregnane X Receptor (PXR) (AID 2283008; active means hit-call score of the fitted dose curve at least 0.9, where 1 is the maximum)
Outline: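 Fluorescence intensity of FAM-labelled, HpaI-digested reporter amplicons, separated by capillary electrophoresis, quantifies induction. HepG2 cells with PXR-Gal4 trans-reporter system were exposed 24 h; DMSO defines baseline.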

[17] = target: human Peroxisome Proliferator-activated Receptor delta (PPARd), PPARD (gene 5467) (UniProt Q03181); assay: ATG_PPARd_TRANS: Attagene TRANS-FACTORIAL HepG2 Assay for human Peroxisome Proliferator-activated Receptor delta (PPARd) (AID 2283002; active means hit-call score of the fitted dose curve at least 0.9, where 1 is the maximum)
Outline: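 HepG2 cells transiently transfected with GAL4-UAS multiplexed reporter units driven by exogenous chimeric NR-GAL4 proteins; 24 h compound exposure. Reporter mRNA measured by RT-PCR, 6-FAM primer extension, HpaI digestion and capillary electrophoresis; gain of signal fitted relative to DMSO.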

[18] = target: human Retinoic Acid Receptor beta (RARb), RARB (gene 5915) (UniProt P10826); assay: ATG_RARb_TRANS: Attagene TRANS-FACTORIAL HepG2 Assay for human Retinoic Acid Receptor beta (AID 2283004; active means hit-call score of the fitted dose curve at least 0.9, where 1 is the maximum)
Outline: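 Fluorescent capillary-electrophoresis detection of GAL4-UAS reporter mRNA defines the endpoint, with induction over DMSO-treated wells scored as activity. Transiently transfected human hepatoma HepG2 cells expressing exogenous NR–Gal4 proteins are exposed to test chemicals for 24 h.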

[19] = target: human Retinoic Acid Receptor gamma (RARg), RARG (gene 5916) (UniProt P13631); assay: ATG_RARg_TRANS: Attagene TRANS-FACTORIAL HepG2 Assay for human Retinoic Acid Receptor gamma (RARg) (AID 2283009; active means hit-call score of the fitted dose curve at least 0.9, where 1 is the maximum)
Outline: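 HepG2 cells transiently transfected with multiplexed reporter units expressing chimeric RARg-GAL4 and GAL4-UAS-driven reporters; 24 h compound exposure. Reporter mRNA quantified by RT-PCR with fluorescent labelling and capillary electrophoresis; gain-of-signal fitted relative to DMSO baseline.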

[20] = target: Retinoic acid receptor alpha (Homo sapiens) (UniProt P10276); assay: ATG_RARa_TRANS: Attagene TRANS-FACTORIAL HepG2 Assay for human Retinoic Acid Receptor alpha (RARa) (AID 2283005; active means hit-call score of the fitted dose curve at least 0.9, where 1 is the maximum)
Outline: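 HepG2 transiently transfected with multiplex GAL4-UAS reporter units including a human RARa–GAL4 chimera; 24 h compound exposure. Reporter mRNA quantified by RT-PCR, 6-FAM labeling and capillary electrophoresis; gain of signal versus DMSO.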

Measured: AC50

Cc1ccc([N+](=O)[O-])c([N+](=O)[O-])c1
active: [6] 6.81 µM | [8] 4.43 µM | [10] 4.08 µM | [11] 3.97 µM | [15] 1.04 µM
inactive: [1] | [2] | [3] | [4] | [5] | [7] | [9] | [12] | [13] | [14] | [16]

CC(C)N(CCO)C(C)C
inactive: [2] | [3] | [4] | [5] | [6] | [7] | [12] | [15] | [16]

O=[N+]([O-])OCC(CO[N+](=O)[O-])(CO[N+](=O)[O-])CO[N+](=O)[O-]
inactive: [1] | [2] | [3] | [4] | [5] | [6] | [7] | [17]

CN(C)CCCl
inactive: [2] | [3] | [4] | [5] | [6] | [7] | [12] | [17] | [15]

Cc1cccc([N+](=O)[O-])c1[N+](=O)[O-]
active: [5] 118 µM | [6] 10.6 µM | [7] 92.3 µM | [10] 6.34 µM | [15] 3.74 µM
inactive: [2] | [3] | [4] | [8] | [9] | [11] | [12] | [13] | [14] | [16]

Cc1ccc([N+](=O)[O-])cc1[N+](=O)[O-]
inactive: [2] | [3] | [4] | [5] | [6] | [7] | [8] | [9] | [10] | [11] | [13] | [14] | [15] | [16]

CC(C)OP(C)(=O)OC(C)C
active: [11] 25 µM
inactive: [1] | [2] | [3] | [4] | [5] | [6] | [7] | [8] | [9] | [10] | [12] | [17] | [13] | [14]

Cc1c([N+](=O)[O-])cccc1[N+](=O)[O-]
inactive: [2] | [3] | [4] | [5] | [6] | [7] | [8] | [9] | [10] | [11] | [12] | [17] | [13] | [18] | [14] | [15] | [16] | [19]

COP(C)(=O)OC
inactive: [1] | [2] | [3] | [4] | [5] | [6] | [7] | [12] | [17] | [20] | [15] | [16] | [19]

N#CBr
inactive: [2] | [3] | [4] | [5] | [6] | [7] | [17] | [15] | [16] | [19]

O=[N+]([O-])c1cccc([N+](=O)[O-])c1
active: [6] 76.8 µM
inactive: [2] | [3] | [4] | [5] | [7] | [8] | [9] | [10] | [11] | [12] | [13] | [14] | [16]

COc1ccc([N+](=O)[O-])cc1[N+](=O)[O-]
inactive: [2] | [3] | [4] | [5] | [6] | [7] | [12] | [16]
